Source: patent US20110039721A1, “METHOD FOR PREDICTION ABOUT CARCINOGENICITY OF SUBSTANCE IN RODENT” (Chemicals Evaluation and Research Institute, priority 2007, published 2011)
Read-outs that look alike come from different tables or passages of the source.

Experiments:
[1] = tested on: mRNA expressed from the genes (A) to (D) in rat liver; assay: Behavior of genes (mRNA expression level, oligo-DNA microarray) in rat liver after 28-day oral administration; assay type: in vivo
Description: A test solution was prepared by dissolving each of the carcinogens and the non-carcinogens shown in Tables 2 to 6 in the corresponding solvent shown in Tables 2 to 6. Each of the thus prepared test solutions and the solvents used for the preparation was administered by oral gavage to rats in each group. As the rats, male rats (F344 SPF rats) at 5 weeks of age obtained from Charles River Laboratories Japan, Inc. were used. The animals were divided into groups, each containing four individuals. The volume of the solvent administered to the vehicle control group was set to the same volume as that of the test solution administered to the carcinogen administration group or the non-carcinogen administration group. The administration of the test solution or the solvent was performed once daily for 28 days. Apiece was excised from the liver of each of the rats after a lapse of 28 days from the initiation of the administration, and the total RNA was extracted and purified.
The expression level of mRNA was compared between each of the chemical substance administration groups and the corresponding vehicle control group, and genes that satisfy the requirements described in (A) to (D) were selected, respectively.
The case where the expression level of mRNA in the carcinogen administration group or the non-carcinogen administration group is 1.5 times or more or 1/1.5 or less of the expression level of the corresponding mRNA expressed in the control group was determined to be significant. In this connection, the determination as to whether or not the change is significant was performed by taking into consideration the direction of increase or decrease in the expression level. In the case where the direction of increase or decrease is different as compared with the case where another carcinogen was administered, the change was determined to be not significant.

[2] = tested on: liver; conditions: cited from earlier work
[3] = gene group (A), Unigene No. Rn.167075
[4] = gene group (C), Unigene No. Rn.120914
[5] = classification of the substance (Cr+/Cr−)

Nc1ccc(N)c([N+](=O)[O-])c1 [TS012, 2-Nitro-p-phenylenediamine]
+: Behavior of gene caused by administration of chemical substance, Gene No. 2026 [1, 3] | Behavior of gene caused by administration of chemical substance, Gene No. 1494 ([1]; gene group (B), Unigene No. Rn.1430) | Behavior of gene caused by administration of chemical substance, Gene No. 533 ([1]; gene group (C), Unigene No. Rn.106184) | Behavior of gene caused by administration of chemical substance, Gene No. 725 ([1]; gene group (C), Unigene No. Rn.108075) | Behavior of gene caused by administration of chemical substance, Gene No. 6303 ([1]; gene group (C), Unigene No. Rn.123063) | Behavior of gene caused by administration of chemical substance, Gene No. 5878 ([1]; gene group (C), Unigene No. Rn.143213) | Behavior of gene caused by administration of chemical substance, Gene No. 1131 ([1]; gene group (C), Unigene No. Rn.144946) | Behavior of gene caused by administration of chemical substance, Gene No. 1741 ([1]; gene group (C), Unigene No. Rn.1647) | Behavior of gene caused by administration of chemical substance, Gene No. 813 ([1]; gene group (C), Unigene No. Rn.201760)
−: Behavior of gene caused by administration of chemical substance, Gene No. 4846 ([1]; gene group (A), Unigene No. Rn.144554) | Behavior of gene caused by administration of chemical substance, Gene No. 4218 [1, 3] | Behavior of gene caused by administration of chemical substance, Gene No. 6182 ([1]; gene group (A), Unigene No. Rn.5834) | Behavior of gene caused by administration of chemical substance, Gene No. 5600 ([1]; gene group (A), Unigene No. Rn.9836) | Behavior of gene caused by administration of chemical substance, Gene No. 2045 ([1]; gene group (B), Unigene No. Rn.19329) | Behavior of gene caused by administration of chemical substance, Gene No. 2203 ([1]; gene group (B), Unigene No. Rn.21240) | Behavior of gene caused by administration of chemical substance, Gene No. 1163 ([1]; gene group (C), Unigene No. Rn.11766) | Behavior of gene caused by administration of chemical substance, Gene No. 4973 ([1]; gene group (C), Unigene No. Rn.118529) | Behavior of gene caused by administration of chemical substance, Gene No. 4095 ([1]; gene group (C), Unigene No. Rn.119024) | Behavior of gene caused by administration of chemical substance, Gene No. 1334 [1, 4] | Behavior of gene caused by administration of chemical substance, Gene No. 6620 [1, 4] | Behavior of gene caused by administration of chemical substance, Gene No. 1562 ([1]; gene group (C), Unigene No. Rn.14744) | Behavior of gene caused by administration of chemical substance, Gene No. 893 ([1]; gene group (C), Unigene No. Rn.164817) | Behavior of gene caused by administration of chemical substance, Gene No. 6026 ([1]; gene group (C), Unigene No. Rn.167685) | Behavior of gene caused by administration of chemical substance, Gene No. 154 ([1]; gene group (C), Unigene No. Rn.185941) | Behavior of gene caused by administration of chemical substance, Gene No. 1993 ([1]; gene group (C), Unigene No. Rn.18728) | Behavior of gene caused by administration of chemical substance, Gene No. 2494 ([1]; gene group (C), Unigene No. Rn.23969) | Behavior of gene caused by administration of chemical substance, Gene No. 2546 ([1]; gene group (C), Unigene No. Rn.24561) | Behavior of gene caused by administration of chemical substance, Gene No. 3776 ([1]; gene group (C), Unigene No. Rn.43232) | Behavior of gene caused by administration of chemical substance, Gene No. 3929 ([1]; gene group (C), Unigene No. Rn.4620) | Behavior of gene caused by administration of chemical substance, Gene No. 1119 ([1]; gene group (C), Unigene No. Rn.9757) | Behavior of gene caused by administration of chemical substance, Gene No. 6742 ([1]; gene group (C), Unigene No. Rn.9779) | Behavior of gene caused by administration of chemical substance, Gene No. 5634 ([1]; gene group (C), Unigene No. Rn.9862) | Behavior of gene caused by administration of chemical substance, Gene No. 5726 ([1]; gene group (D), Unigene No. Rn.9939)

O=C(c1ccccc1)C(O)c1ccccc1 (centres unmarked) [TS038, Benzoin]
Cr−: Liver carcinogenicity [2, 5]

ClC(Cl)Cl [TS056, Chloroform]
Cr+: Liver carcinogenicity [2, 5]

O=[N+]([O-])c1ccc2ccc3cccc4ccc1c2c34 [TS064, 1-Nitropyrene]
Cr−: Liver carcinogenicity ([2]; classification Cr+/Cr−)

CC(N)=O [TS067, Acetamide]
Cr+: Liver carcinogenicity ([2]; in vivo)

Cc1ccccc1[N+](=O)[O-] [TS087, o-Nitrotoluene]
Cr+: Liver carcinogenicity ([2]; classification Cr+/Cr−)
